Binding of CDR-mutated scFvs to a peptide of the spike HR2 region

From the AlphaSeq antibody data of Engelhart et al. 2022 (doi:10.1038/s41597-022-01779-4), copy in the FLAb collection.

The target is the same throughout: PDVDLGDISGINAS, from the HR2 region of SARS-CoV-2 spike.

Ab-95 is the parent antibody, in scFv form: VH, then a (GGGGS)3 linker, then VL. The heavy chain is unchanged in all variants.
VH: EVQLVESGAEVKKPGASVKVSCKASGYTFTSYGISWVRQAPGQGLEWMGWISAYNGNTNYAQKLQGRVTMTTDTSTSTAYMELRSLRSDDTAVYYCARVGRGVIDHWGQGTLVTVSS
VL: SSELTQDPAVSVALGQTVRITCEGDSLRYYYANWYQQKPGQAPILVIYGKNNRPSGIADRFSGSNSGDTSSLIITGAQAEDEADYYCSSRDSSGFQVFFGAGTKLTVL

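In library AAYL52, one, two or three CDR residues were substituted; doubles and triples were drawn at random. AlphaSeq pools MATa yeast showing the antibodies with MATalpha yeast showing the peptide. After mating in shaken culture at 30 °C for 16 h, diploids were selected and their barcode pairs sequenced. The ratio of observed to expected reads was calibrated, replicate by replicate, on BCL2-family standards whose Kd was known from biolayer interferometry. There are three technical replicates.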

Positions count from residue 1 of the parent VL; K50W puts W in place of K. The Kd shown is the geometric mean over detected replicates; a lower Kd is a better binder. "no signal" marks a missing value. The strain was present, yet no cells mated with the target were sequenced in any replicate, which points to weak or no binding.

| # | Kd | replicates with signal | changes |
|---|---|---|---|
| 1 | 2.3 µM | 1 of 3 | K50W D91S F98C |
| 2 | 360 nM | 3 of 3 | Y30Q Y31Q A32E |
| 3 | 5.8 µM | 3 of 3 | G24F S93F F95N |
| 4 | 660 nM | 3 of 3 | Y31P N33C P54V |
| 5 | 2.3 µM | 2 of 3 | A32V S93A Q96R |
| 6 | 590 nM | 3 of 3 | K50G G94R F95L |
| 7 | 1.6 µM | 2 of 3 | D25Y R28E G49E |
| 8 | 5.3 µM | 3 of 3 | D25G G49K D91L |
| 9 | 1.2 µM | 3 of 3 | S26H Y31M S88H |
| 10 | 8.1 µM | 3 of 3 | D25F Y29M K50A |
| 11 | 9.6 µM | 2 of 3 | N51F R53S S92W |
| 12 | 71 µM | 2 of 3 | G49Q G94S Q96H |
| 13 | 850 nM | 2 of 3 | G24K A32S V97N |
| 14 | 3.5 µM | 2 of 3 | S26G Y31I S93V |
| 15 | no signal | 0 of 3 | G24R P54K F98Y |
| 16 | 3.6 µM | 3 of 3 | G49Y S89C G94C |
| 17 | 5.1 µM | 1 of 3 | S26T L27P V97N |
| 18 | 100 µM | 2 of 3 | S26Y N33D G49F |
| 19 | 180 nM | 3 of 3 | N52V P54N |
| 20 | 1.5 µM | 3 of 3 | E23W Y30T N51W |
| 21 | 18 µM | 1 of 3 | Y29D N51V P54D |
| 22 | 1.6 µM | 3 of 3 | Y29K S89D |
| 23 | 140 nM | 3 of 3 | P54S R90T S93H |
| 24 | no signal | 0 of 3 | A32F R53M V97Y |
| 25 | 230 nM | 3 of 3 | D25F Y29H G94T |
| 26 | 3.7 µM | 1 of 3 | G24T N51M G94R |
| 27 | 2.2 µM | 3 of 3 | K50R S89Y S92Q |
| 28 | 510 nM | 3 of 3 | A32T Q96W |
| 29 | 2.8 µM | 2 of 3 | R28Q A32H S88L |
| 30 | 1.3 µM | 1 of 3 | Y29C A32R F95R |
| 31 | 460 µM | 1 of 3 | N33L K50G V97I |
| 32 | 30 µM | 3 of 3 | P54I D91M F95R |
| 33 | 89 µM | 1 of 3 | S26A P54R D91F |
| 34 | 8.2 µM | 2 of 3 | G24P A32D K50C |
| 35 | 240 nM | 3 of 3 | Y30H S93Y Q96A |
| 36 | 5.5 µM | 1 of 3 | R28T N52F |
| 37 | 3.7 µM | 2 of 3 | R28I S89G S93K |
| 38 | 340 nM | 3 of 3 | Y30T S55A S89E |
| 39 | 190 µM | 1 of 3 | E23R G49V K50S |
| 40 | 100 nM | 3 of 3 | Q96C V97R |
| 41 | 410 nM | 2 of 3 | E23S D25H D91Q |
| 42 | 4.7 µM | 3 of 3 | Y30M S55W V97P |
| 43 | 46 µM | 1 of 3 | E23Y N33P S55F |
| 44 | 11 µM | 2 of 3 | G24E N51R Q96C |
| 45 | 21 µM | 1 of 3 | L27Y N52H R90C |
| 46 | 22 µM | 1 of 3 | G49I R90D D91T |
| 47 | 820 nM | 3 of 3 | G24V R53D D91N |
| 48 | 590 nM | 3 of 3 | Y31H A32N G94A |
| 49 | 4.9 µM | 3 of 3 | Y30D N51I S92L |
| 50 | 160 nM | 3 of 3 | Y31M K50Q Q96A |
| 51 | 9.1 µM | 2 of 3 | R28D Y29N R90P |
| 52 | 280 nM | 3 of 3 | N52D S88N F98G |
| 53 | 320 nM | 3 of 3 | Y31C R53H S55Y |
| 54 | 5.6 µM | 3 of 3 | S26Y K50Y N51G |
| 55 | 11 µM | 2 of 3 | G49V S88C R90D |
| 56 | no signal | 0 of 3 | S26M R90P V97F |
| 57 | 14 µM | 2 of 3 | L27I N51V S89R |
| 58 | 3.7 µM | 2 of 3 | G24V D25W F98N |
| 59 | 12 µM | 1 of 3 | L27S R28Q D91T |
| 60 | 870 nM | 1 of 3 | L27D G49S S93E |

Nonspecific signal, from three strains lacking the peptide, appeared in 28% of pairings of library AAYL52, centred on 8.2 µM (5% of these signals below 800 nM); values are not corrected for it. Parent in this assay: reference entry 200 nM, copy in this library 180 nM.